Our source for the inhibition values is PubChem BioAssay AID488899 (Broad Institute, 2010).

The structures appear in SMILES notation. The list shows a part of the results, in another mix than the full data. Activity calls are given as the source filed them.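 How the source made its calls: active means mean inhibition across replicates of 60% or more, whatever share of single replicates reaches that level; inconclusive means some that reach 60%, reason not given; inactive means mean inhibition across replicates below 60%.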

This test is described as follows: inhibitors of MITF-dependent TRPM1 promoter reporter, primary screen, cell-based, SK-MEL-5, single point, luciferase (AID 488899). The following applies: SK-MEL-5 TRPM1 promoter luciferase, 24 h; at 12.5 µM; stronger effect = higher value.
What is called inhibition is the drop in the measured response relative to a control, in per cent. For `CCOC(=O)c1ccc(NP(C)(=O)Oc2ccc(OC)cc2)cc1` (stereo not given), the inhibition is inactive: -4.81%.

As for `CCOP(C)(=S)SCC(=O)NC(C)C(=O)O` (stereo not given), the inhibition was inactive: 4.63%.

For the compound `CP(=O)(Nc1ccccn1)Oc1ccc(Cl)cc1` (stereo not given), the inhibition is inactive: -0.141%.

For `CP(=O)(Oc1ccccc1)OC(c1ccccc1)C(F)(F)F` (stereo not given), the inhibition is inactive: 10.7%.

For `Cc1cccc(C)c1OP(C)(=O)Nc1ccc(SC(F)(F)F)cc1` (stereo not given), the inhibition was inactive: -15.8%.

Consider `Cc1cc(C)cc(OP(C)(=O)Nc2ccc(SC(F)(F)F)cc2)c1` (stereo not given), for which the inhibition is inactive: -2.24%.

Take `CCc1ccc(OP(C)(=O)N2CCN(c3ccc([N+](=O)[O-])cc3)CC2)cc1` (stereo not given): the inhibition is inactive: 19.2%.

For the compound `CP(=O)(NC(=O)Nc1ccccc1)Oc1ccccc1` (stereo not given), the inhibition was inactive: 0.331%.

For `CP(=S)(Nn1cnnc1)Oc1ccccc1` (stereo not given), the inhibition is inactive: 6.37%.

Consider `CP(=O)(Nc1ccccc1Br)Oc1ccccc1` (stereo not given), for which the inhibition was inactive: 3.49%.

For the compound `COc1ccccc1OP(C)(=O)Nc1ccccc1` (stereo not given), the inhibition is inactive: -18.2%.

In the case of `Cc1ccc(NP(C)(=O)Oc2ccccc2)c(C)c1` (stereo not given), the inhibition was inactive: 7.57%.

As for `COc1ccccc1OP(C)(=O)Nc1ccc(C)cc1` (stereo not given), the inhibition is inactive: 16.9%.

For the compound `CCOC(=O)c1ccc(NP(C)(=O)Oc2ccccc2)cc1` (stereo not given), the inhibition was inactive: 5.21%.

Take `Cc1cc(C)cc(OP(C)(N)=O)c1` (stereo not given): the inhibition was inactive: 2.3%.

Take `COc1ccc(OP(C)(=O)Nc2cccc(F)c2)cc1` (stereo not given): the inhibition was inactive: 8.02%.

With `COc1ccccc1OP(C)(=O)Nc1cc(Cl)ccc1C` (stereo not given), the inhibition was inactive: 2.16%.

In the case of `O=[N+]([O-])c1cc([N+](=O)[O-])c(Nc2cccnc2)c([N+](=O)[O-])c1`, the inhibition was inactive: 1.91%.

`O=[N+]([O-])c1ccc2c(c1)C=Nc1ccccc1O2`: the inhibition was inactive: 11.8%.

On to `Cc1cccc(C)c1OP(C)(N)=O` (stereo not given), for which the inhibition was inactive: -1.87%.

Turning to `CC(C)(C)c1ccc(OP(C)(=O)Nc2ccc(SC(F)(F)F)cc2)cc1` (stereo not given), the inhibition was inactive: 9.05%.

With `CCN(CC)CCCOC(=O)C(O)(c1ccccc1)c1ccccc1`, the inhibition is inactive: 9.58%.

Take `Cc1ccc(C)c(NP(C)(=O)Oc2ccccc2)c1` (stereo not given): the inhibition was inactive: -7.1%.

In the case of `CP(=O)(Nc1cccc(Br)c1)Oc1ccccc1` (stereo not given), the inhibition is inactive: -2.48%.

`Cc1cc(C)cc(OP(C)(=O)Nc2ccccn2)c1` (stereo not given): the inhibition was inactive: -4.33%.

For `COc1ccccc1OP(C)(=O)Nc1cccc(Br)c1` (stereo not given), the inhibition is inactive: 6.15%.

As to `CCOC(=O)c1ccc(NP(C)(=O)Oc2cc(C)cc(C)c2)cc1` (stereo not given), the inhibition is inactive: 3.48%.

In the case of `Cc1cc(C)cc(OP(C)(=O)Nc2ccc(C)cc2C)c1` (stereo not given), the inhibition was inactive: -6.72%.

Turning to `CC1=NCCc2c1[nH]c1ccccc21.O=[N+]([O-])c1cc([N+](=O)[O-])c(O)c([N+](=O)[O-])c1`, the inhibition is inactive: 4.25%.

With `O=C(O)c1cccc(Nc2c([N+](=O)[O-])cc([N+](=O)[O-])cc2[N+](=O)[O-])c1`, the inhibition is inactive: 3.55%.

As for `CN1CCCCC1COC(=O)C1(O)c2ccccc2CCc2ccccc21` (stereo not given), the inhibition is inactive: 0.723%.

`COc1ccccc1OP(C)(=O)Nc1c(C)cccc1C` (stereo not given): the inhibition was inactive: 16.1%.

Regarding `CP(=O)(Nc1ccc(SC(F)(F)F)cc1)Oc1ccccc1` (stereo not given), the inhibition is inactive: -6.44%.

As for `CCOC(=O)C(CC)C1=NC(C)(C)Cc2ccccc21.O=[N+]([O-])c1cc([N+](=O)[O-])c(O)c([N+](=O)[O-])c1` (stereo not given), the inhibition is inactive: 3.55%.

Consider `O=[N+]([O-])c1cc([N+](=O)[O-])c(Nc2nnnn2CCO)c([N+](=O)[O-])c1`, for which the inhibition was inactive: -8.47%.

With `CC1=C2N=C(C=C3N=C(C(C)=C4[N-][C@@](C)([C@@H]5N=C1[C@](C)(CCC(=O)NC[C@@H](C)OP(=O)([O-])O[C@H]1[C@@H](O)[C@@H](n6cnc7cc(C)c(C)cc76)O[C@@H]1CO)[C@H]5CC(N)=O)[C@@](C)(CC(N)=O)[C@@H]4CCC(N)=O)[C@@](C)(CC(N)=O)[C@@H]3CCC(N)=O)C(C)(C)[C@@H]2CCC(N)=O.[C-]#N.[Co+3]`, the inhibition was inactive: 6.76%.

Regarding `O=[N+]([O-])c1cc([N+](=O)[O-])c(-c2cnn(-c3ccccc3)c2)c([N+](=O)[O-])c1`, the inhibition was inactive: 36.9%.

`Cc1nc2ccc3ccccc3c2s1.O=[N+]([O-])c1cc([N+](=O)[O-])c(O)c([N+](=O)[O-])c1`: the inhibition was inactive: -4.7%.

`O=[N+]([O-])c1cc([N+](=O)[O-])c(-n2nnc3ccccc32)c([N+](=O)[O-])c1`: the inhibition was inactive: 0.784%.

For the compound `CP(=O)(Nc1ccc2c(c1)OCCO2)Oc1ccccc1` (stereo not given), the inhibition is inactive: 44.9%.

Regarding `Cc1ccccc1NP(C)(=O)Nc1ccccc1C`, the inhibition is inactive: -17.2%.

For the compound `CP(=O)(Nc1ccc(SC(F)(F)F)cc1)Oc1ccc(F)cc1` (stereo not given), the inhibition is inactive: -6.41%.

With `CCOP(C)(=S)SCC(=O)NC(C)(CC)C(=O)O` (stereo not given), the inhibition was inactive: -7.23%.

Regarding `O=[N+]([O-])c1ccc(OP2(=O)COCCO2)cc1` (stereo not given), the inhibition was inactive: 6%.

For `Cc1cc(-c2cccc3ccccc23)c(C)cn1.O=[N+]([O-])c1cc([N+](=O)[O-])c(O)c([N+](=O)[O-])c1`, the inhibition is inactive: 6.97%.

In the case of `O=[N+]([O-])c1cc([N+](=O)[O-])c(NCC2CCS(=O)(=O)C2)c([N+](=O)[O-])c1` (stereo not given), the inhibition is inactive: 43.4%.

With `Cc1c(C(c2ccc3c(c2)OCO3)c2c(C)n(C)n(-c3ccccc3)c2=O)c(=O)n(-c2ccccc2)n1C.O=[N+]([O-])c1cc([N+](=O)[O-])c(O)c([N+](=O)[O-])c1`, the inhibition is inactive: -9.23%.

Turning to `COc1ccc(OP(C)(=O)Nc2cccc(Br)c2)cc1` (stereo not given), the inhibition is inactive: 8.33%.

In the case of `CN(C)CCOC(=O)C(O)(c1ccccc1)C1CCCCC1` (stereo not given), the inhibition is inactive: -9.75%.

On to `COc1ccc(NP(C)(=O)Oc2ccccc2OC)cc1` (stereo not given), for which the inhibition is inactive: 21.2%.

Regarding `Cc1c([N+](=O)[O-])cc([N+](=O)[O-])c(Br)c1[N+](=O)[O-]`, the inhibition was inactive: -0.734%.

In the case of `CCN(CC)CCCOC(=O)C(O)(c1ccccc1)C1CCCCC1` (stereo not given), the inhibition is inactive: -11.1%.

In the case of `CP(=O)(Nc1ccccc1)Oc1ccc(F)cc1` (stereo not given), the inhibition was inactive: 2.92%.

In the case of `O=[N+]([O-])c1cc([N+](=O)[O-])c(OC2CCCCC2O)c([N+](=O)[O-])c1` (stereo not given), the inhibition was inactive: -8.33%.

As to `CCCCCOc1ccc(NP(C)(=O)Oc2ccc(Cl)cc2Cl)cc1` (stereo not given), the inhibition was inactive: 3.78%.
